## AlphaSeq binding of Ab-91 heavy chain variants to a spike HR2 peptide

Reference: Engelhart et al. 2022, doi:10.1038/s41597-022-01779-4. File: FLAb, binding data.

Target: peptide PDVDLGDISGINAS, taken from heptad repeat 2 (HR2) of SARS-CoV-2 spike.

Ab-91 is the parent antibody, in scFv form: VL, then a 15-residue (Gly4Ser)3 linker, then VH. The light chain is unchanged in all variants.
VL: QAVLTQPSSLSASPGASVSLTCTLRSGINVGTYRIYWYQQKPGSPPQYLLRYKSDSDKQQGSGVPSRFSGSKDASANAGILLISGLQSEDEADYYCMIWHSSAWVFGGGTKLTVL
VH: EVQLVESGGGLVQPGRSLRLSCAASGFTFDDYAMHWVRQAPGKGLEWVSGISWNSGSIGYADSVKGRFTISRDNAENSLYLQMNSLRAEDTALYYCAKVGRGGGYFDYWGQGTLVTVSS

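In library AAYL51, one, two or three CDR residues were substituted; doubles and triples were drawn at random. The assay is AlphaSeq: two haploid yeast populations carry antibody and antigen on their surface. The frequency of each diploid, read from paired DNA barcodes, reflects how well the two displayed proteins bind. A regression on co-assayed BCL2-family reference pairs converts the normalised counts of each replicate to an apparent Kd. Each pool was mated in three replicate cultures.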

Changes read parent residue, position, new residue, counted from the first residue of the VH shown.
Every variant below is changed at G56 of the VH (sequential numbering).
Kd is apparent (estimated from mating counts) and averaged on the log scale over replicates with a signal. Smaller is tighter.
An entry "no signal" has no value in the source: the pair was not observed among the diploids in any replicate. This suggests poor binding but is not conclusive.
Three control strains display no target. For library AAYL51, 21% of the pairings with them gave a signal, with a median of 34 µM and one signal in twenty below 1.8 µM, so weak values seen in few replicates may be background. Also given: how often the same scFv was detected with the empty control strains.
Parent in this assay: reference entry 72 nM, copy in this library 7.5 nM.

Variant G56K/Y60V/F106N showed 1.8 µM (3 of 3 replicates; controls 2 of 9). Variant D31E/G56I/I58K gave 34 nM (3 of 3 replicates; controls 2 of 9). Variant D30T/G56V gave 11 nM (3 of 3 replicates; controls 0 of 9). With D31K/N54V/G56P the result was no signal (0 of 3 replicates; controls 0 of 9). Variant F27A/G56R/G100P gave no signal (0 of 3 replicates; controls 1 of 9). With I51T/G56L/S63P the result was 56 nM (3 of 3 replicates; controls 2 of 9). Variant G56K/A61C/G102E showed 8.5 µM (1 of 3 replicates; controls 0 of 9).

For G56V, the assay gave 1.2 µM (3 of 3 replicates; controls 6 of 9). Variant G56V/V64G/Y105M gave 13 µM (2 of 3 replicates; controls 0 of 9). For D31S/G50Q/G56S, the assay gave 60 µM (2 of 3 replicates; controls 3 of 9). Variant G56P/G100Q gave no signal (0 of 3 replicates; controls 1 of 9). Variant G56C/G59E/K65G showed 77 nM (1 of 3 replicates; controls 0 of 9). For D30Q/I51W/G56F, the assay gave no signal (0 of 3 replicates; controls 0 of 9). For G26M/S55W/G56P, the assay gave 850 µM (2 of 3 replicates; controls 3 of 9).

Variant G56C/V99M gave 29 µM (2 of 3 replicates; controls 4 of 9). With T28M/G56K/F106Y the result was 100 nM (3 of 3 replicates; controls 2 of 9). For M34E/G56Y/Y105L, the assay gave 280 µM (1 of 3 replicates; controls 2 of 9). Variant G56W/V99N gave 410 µM (2 of 3 replicates; controls 4 of 9). Variant G56V/S57K/Y60R showed no signal (0 of 3 replicates; controls 2 of 9). Variant D30G/G56I/G102S showed 530 nM (3 of 3 replicates; controls 0 of 9). With A33V/S55I/G56H the result was 360 µM (1 of 3 replicates; controls 2 of 9).

Variant S55F/G56D/D62T showed 270 nM (1 of 3 replicates; controls 0 of 9). For G56E/V64P, the assay gave 260 nM (3 of 3 replicates; controls 0 of 9). For S52V/S55P/G56N, the assay gave 120 µM (2 of 3 replicates; controls 5 of 9). Variant M34C/G56T showed no signal (0 of 3 replicates; controls 2 of 9). Variant G56T/V64G/G102Y gave no signal (0 of 3 replicates; controls 0 of 9). Variant D30I/M34A/G56E gave 11 µM (1 of 3 replicates; controls 1 of 9). With W53R/G56F/G59Y the result was 21 µM (1 of 3 replicates; controls 3 of 9).

For I51E/G56N/R101L, the assay gave 89 µM (3 of 3 replicates; controls 5 of 9). Variant F27E/F29W/G56S showed 28 µM (2 of 3 replicates; controls 2 of 9).

The opening 4 entries, copied out:

changes	apparent Kd	seen in	control signals
G56K/Y60V/F106N	1.8 µM	3 of 3	2 of 9
D31E/G56I/I58K	34 nM	3 of 3	2 of 9
D30T/G56V	11 nM	3 of 3	0 of 9
D31K/N54V/G56P	no signal	0 of 3	0 of 9